According to patent publication US7951772B2, “Tumor-activated prodrug compounds and treatment” (La Region Wallonne, priority 1994, dated 2011):

Experiments:
[1] = tested on: MCF7/6 human mammary tumor; assay: MCF7/6 human mammary tumor implanted in athymic mice; format: in vivo, mouse; settings: athymic mice with implanted MCF7/6 human mammary tumor
Protocol: These experiments were carried out according to the protocols described in Example 11.

[2] = Degradation in human blood at 37 C
[3] = tested on: MCF7/6 human mammary carcinoma cells; assay: Accumulation in MCF7/6 tumor cells (HPLC of cell extracts)
MRC5 fibroblast cells [4] = assay: Accumulation in MRC5 normal fibroblast cells (HPLC of cell extracts)
MRC5 fibroblast cells [5] = assay: Cytotoxicity with respect to MRC5 normal cells (72 h, Bradford protein)
[6] = tested on: MCF7/6 human mammary carcinoma cells; assay: Cytotoxicity with respect to MCF7/6 tumor cells (72 h, Bradford protein)
[7] = tested on: conditioned medium from MCF7/6 mammary carcinoma cells; assay: Degradation in conditioned medium from MCF7/6 mammary carcinoma cells (HPLC)

## COc1cccc2c1C(=O)c1c(O)c3c(c(O)c1C2=O)C[C@@](O)(C(=O)CO)C[C@@H]3O[C@H]1C[C@H](NC(=O)[C@H](CC(C)C)NC(=O)[C@H](C)NC(=O)[C@H](CC(C)C)NC(=O)CCN)[C@H](O)[C@H](C)O1 [β-Ala-Leu-Ala-Leu-DOX, β-alanyl-L-leucyl-L-alanyl-L-leucyldoxorubicin]
[1]
  mean weight of the mice treated: without substantially affecting the mean weight
  progression of the cancerous tumor (mean tumor mass): reduces the progression of the cancerous tumor
[2]
  stability when incubated in human blood: stable
[2]; human blood, after 2 hours
  prodrug hydrolyzed to L-Leu-DOX: less than 2%
[3]; 6 h incubation
  intracellular levels of DOX in MCF7 tumor cells, times as high as in MRC5 nontumor cells: 22 times
[3]; MCF7/6 cells, 10 μg eq. DOX/ml
  Accumulation after 6 h, A-L-A-L-DOX: 0.10 μg/mg cellular prot.
  Accumulation after 6 h, DOX: 0.22 μg/mg cellular prot.
  Accumulation after 6 h, Leu-DOX: 0.65 μg/mg cellular prot.
[3]; MCF7/6 cells, after 6 hours
  accumulation, times less than DOX: 69 times
  intracellular DOX levels, times lower than with DOX: 31 times
MRC5 fibroblast cells [4]; 10 μg eq. DOX/ml
  Accumulation after 6 h, A-L-A-L-DOX: 0.10 μg/mg cellular prot.
  Accumulation after 6 h, DOX: 0.01 μg/mg cellular prot.
  Accumulation after 6 h, Leu-DOX: 0.10 μg/mg cellular prot.
MRC5 fibroblast cells [4]; after 6 hours
  accumulation, times less than DOX: 112 times
  intracellular DOX levels, times lower than with DOX: 1100 times
MRC5 fibroblast cells [5]
  IC50 (72 h): 120 µg/mL (≈ 132 µM)
MRC5 fibroblast cells [5]; 72 hours
  times less cytotoxic than DOX: 6,700 times
[6]; 72 hours
  times as toxic for MCF7 tumor cells as for MRC5 nontumor cells: 40 times
[6]; MCF7/6 cells
  IC50 (72 h): 3.0 µg/mL (≈ 3.29 µM)
[6]; MCF7/6 cells, 72 hours
  times less cytotoxic than DOX: 1,000 times
[7]; compared with the DNR prodrug
  rate of hydrolysis by the peptidase(s) secreted by MCF7/6 cells: hydrolyzed less rapidly than the DNR prodrug
[7]; β-Ala-Leu-Ala-Leu-DOX incubated at 37 C in MCF7/6 conditioned medium concentrated 20 times, share of each species, 2 hours
  Starting material or Metabolite, After 2 hours: 23%
[7]; β-Ala-Leu-Ala-Leu-DOX incubated at 37 C in MCF7/6 conditioned medium concentrated 20 times, share of each species, time 0
  Starting material or Metabolite, Time 0: 100%

≈ marks a conversion by molar mass, not a printed value.
